Test results reported in patent publication US10508118B2, “Pyrimidopyrrole compounds, method for preparing the same, pharmaceutical compositions comprising the same and uses thereof” (Xiamen University, priority 2015, dated 2019).

Sequences of proteins named here, by UniProt entry; tags and fusion partners are left off. A line that says so, or that is headed by a name, gives the form on record, which may keep a tag or linker. Residues count along the entry.
UniProt Q9UM73, 1058-1620 limits assumed: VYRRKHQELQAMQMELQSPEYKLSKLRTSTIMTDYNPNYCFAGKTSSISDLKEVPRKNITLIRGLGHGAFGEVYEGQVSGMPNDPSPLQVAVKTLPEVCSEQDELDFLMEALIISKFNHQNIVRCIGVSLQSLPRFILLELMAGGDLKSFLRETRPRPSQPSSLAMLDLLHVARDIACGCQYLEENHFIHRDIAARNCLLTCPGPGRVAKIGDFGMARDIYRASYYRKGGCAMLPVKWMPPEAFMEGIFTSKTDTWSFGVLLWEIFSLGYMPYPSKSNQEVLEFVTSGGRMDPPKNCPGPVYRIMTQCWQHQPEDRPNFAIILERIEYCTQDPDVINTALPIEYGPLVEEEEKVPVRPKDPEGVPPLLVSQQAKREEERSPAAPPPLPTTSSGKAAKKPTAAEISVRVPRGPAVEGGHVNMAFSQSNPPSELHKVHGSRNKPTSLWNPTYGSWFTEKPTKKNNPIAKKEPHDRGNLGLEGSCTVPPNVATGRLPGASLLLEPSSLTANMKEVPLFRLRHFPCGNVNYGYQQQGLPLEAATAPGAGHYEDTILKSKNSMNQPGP
UniProt Q9UM73, with tags, fused parts or gaps limits assumed: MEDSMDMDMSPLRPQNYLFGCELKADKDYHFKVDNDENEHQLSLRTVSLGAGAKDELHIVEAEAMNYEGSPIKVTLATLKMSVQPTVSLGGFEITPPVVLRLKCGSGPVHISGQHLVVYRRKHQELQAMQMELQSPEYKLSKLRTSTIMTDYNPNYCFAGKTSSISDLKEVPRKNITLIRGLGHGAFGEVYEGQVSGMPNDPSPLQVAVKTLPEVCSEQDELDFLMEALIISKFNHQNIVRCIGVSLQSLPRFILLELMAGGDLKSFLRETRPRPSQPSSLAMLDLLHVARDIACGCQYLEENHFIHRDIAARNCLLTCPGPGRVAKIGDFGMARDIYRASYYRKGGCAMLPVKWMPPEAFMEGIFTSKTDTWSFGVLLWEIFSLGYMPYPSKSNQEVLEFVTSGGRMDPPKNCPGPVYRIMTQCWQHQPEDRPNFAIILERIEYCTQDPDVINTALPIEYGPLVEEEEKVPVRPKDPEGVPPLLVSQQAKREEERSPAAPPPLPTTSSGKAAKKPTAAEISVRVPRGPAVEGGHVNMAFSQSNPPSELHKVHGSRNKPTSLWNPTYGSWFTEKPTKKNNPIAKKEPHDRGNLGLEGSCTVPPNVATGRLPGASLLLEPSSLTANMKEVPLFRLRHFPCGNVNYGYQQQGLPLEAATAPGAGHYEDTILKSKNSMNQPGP

Assays:
wild type BaF3 = experiment: Growth inhibition of wild type BaF3 cells (broad-spectrum toxicity)
EML4-ALK-BaF3 = EML4-ALK-BaF3 (Homo sapiens, UniProt Q9UM73); experiment: Growth inhibition of EML4-ALK transformed BaF3 cells (MTS); type: cell-based
NPM-ALK-BaF3 = NPM-ALK-BaF3 (Homo sapiens, UniProt Q9UM73); experiment: Growth inhibition of NPM-ALK transformed BaF3 cells (MTS)

Molecule `CCOc1cc(N2CCC(O)CC2)ccc1Nc1nc(NCc2ccccc2SC)c2c(ccn2C)n1` has an IC50 (wild type BaF3; read-out: BaF3 (IC50 nM), 48 hours, MTS, Table 12, tested form: TFA salt) greater than 10000 nM, an IC50 (EML4-ALK-BaF3; read-out: EML4-ALK (IC50 nM), 48 hours, Table 12, tested form: TFA salt) greater than 10000 nM and an IC50 (NPM-ALK-BaF3; read-out: NPM-ALK (IC50 nM), 48 hours, Table 12, tested form: TFA salt) greater than 10000 nM.

`COC(=O)c1cccc(Nc2nc(Nc3ccc(N4CCN(C)CC4)cc3)nc3cc[nH]c23)c1` gave an IC50 (wild type BaF3; read-out: BaF3 (IC50 nM), 48 hours, MTS, Table 11, tested form: TFA salt) of 2550 nM, an IC50 (EML4-ALK-BaF3; read-out: EML4-ALK (IC50 nM), 48 hours, Table 11, tested form: TFA salt) of 1560 nM and an IC50 (NPM-ALK-BaF3; read-out: NPM-ALK (IC50 nM), 48 hours, Table 11, tested form: TFA salt) of 1940 nM.

Molecule `COc1cc(N2CCC(N3CCN(C)CC3)CC2)ccc1Nc1nc(NCc2ccccc2S(=O)(=O)C(C)C)c2[nH]ccc2n1` has an IC50 (wild type BaF3; read-out: BaF3 (IC50 nM), 48 hours, MTS, Table 11) of 7810 nM, an IC50 (EML4-ALK-BaF3; read-out: EML4-ALK (IC50 nM), 48 hours, Table 11) of 4420 nM and an IC50 (NPM-ALK-BaF3; read-out: NPM-ALK (IC50 nM), 48 hours, Table 11) of 6630 nM.

`CCOc1cc(N2CCC(O)CC2)ccc1Nc1nc(NCc2ccccc2S(C)(=O)=O)c2c(ccn2C)n1` was tested, and the IC50 (wild type BaF3; read-out: BaF3 (IC50 nM), 48 hours, MTS, Table 12) was greater than 10000 nM, the IC50 (EML4-ALK-BaF3; read-out: EML4-ALK (IC50 nM), 48 hours, Table 12) was greater than 10000 nM and the IC50 (NPM-ALK-BaF3; read-out: NPM-ALK (IC50 nM), 48 hours, Table 12) was greater than 10000 nM.

Read-outs that look alike come from different tables or passages of the source.
